Measurements published in patent US20160024487.

How the values were obtained:
[1] = tested on: Lys(Dnp)-SEYQTFFNPRIVGG-Lys(Abz)
[2] = tested on: Lys(Dnp)-ATNATPWPRIVGG-Lys(Abz)
[3] = tested on: Lys(Dnp)-ATNATHWPRIVGG-Lys(Abz)
[4] = tested on: Lys(Dnp)-ATNATX4X3PRIVGG-Lys(Abz), X4 = T, X3 = I
[5] = tested on: Lys(Dnp)-ATNATX4X3PRIVGG-Lys(Abz), X4 = N, X3 = G
[6] = tested on: Lys(Dnp)-ATNATHPPRIVGG-Lys(Abz)
[7] = tested on: Lys(Dnp)-ATNATX4X3PRIVGG-Lys(Abz), X4 = D, X3 = F
[8] = tested on: Lys(Dnp)-ATNATSQPRIVGG-Lys(Abz)
[9] = tested on: Lys(Dnp)-ATNATX4X3PRIVGG-Lys(Abz), X4 = N, X3 = S
[10] = tested on: Lys(Dnp)-ATNATX4X3PRIVGG-Lys(Abz), X4 = N, X3 = Y
[11] = tested on: Lys(Dnp)-ATNATX4X3PRIVGG-Lys(Abz), X4 = G, X3 = F
[12] = tested on: Lys(Dnp)-ATNATFDPRIVGG-Lys(Abz)
[13] = tested on: Lys(Dnp)-ATNATGTPRIVGG-Lys(Abz)
[14] = tested on: Lys(Dnp)-ATNATX4X3PRIVGG-Lys(Abz), X4 = T, X3 = V
[15] = tested on: Lys(Dnp)-ATNATX4X3PRIVGG-Lys(Abz), X4 = K, X3 = F
[16] = tested on: Lys(Dnp)-ATNATFEPRIVGG-Lys(Abz)
[17] = tested on: Lys(Dnp)-ATNATIGPRIVGG-Lys(Abz)
[18] = tested on: Lys(Dnp)-ATNATALPRIVGG-Lys(Abz)
[19] = tested on: Lys(Dnp)-ATNATX4X3PRIVGG-Lys(Abz), X4 = G, X3 = H
[20] = tested on: Lys(Dnp)-ATNATVVPRIVGG-Lys(Abz)
[21] = tested on: Lys(Dnp)-ATNATRPPRIVGG-Lys(Abz)
[22] = tested on: Lys(Dnp)-ATNATSKPRIVGG-Lys(Abz)
[23] = tested on: Lys(Dnp)-ATNATMEPRIVGG-Lys(Abz)
[24] = tested on: Lys(Dnp)-ATNATFIPRIVGG-Lys(Abz)
[25] = tested on: Lys(Dnp)-ATNATWNPRIVGG-Lys(Abz)
[26] = tested on: Lys(Dnp)-ATNATX4X3PRIVGG-Lys(Abz), X4 = D, X3 = G
[27] = tested on: Lys(Dnp)-ATNATDWPRIVGG-Lys(Abz)
[28] = tested on: Lys(Dnp)-ATNATQFPRIVGG-Lys(Abz)
[29] = tested on: Lys(Dnp)-ATNATLQPRIVGG-Lys(Abz)
[30] = tested on: Lys(Dnp)-ATNATLYPRIVGG-Lys(Abz)
[31] = tested on: Lys(Dnp)-ATNATPEPRIVGG-Lys(Abz)
[32] = tested on: Lys(Dnp)-ATNATIPPRIVGG-Lys(Abz)
[33] = tested on: Lys(Dnp)-ATNATVRPRIVGG-Lys(Abz)
[34] = tested on: Lys(Dnp)-ATNATX4X3PRIVGG-Lys(Abz), X4 = P, X3 = P
[35] = tested on: Lys(Dnp)-ATNATAKPRIVGG-Lys(Abz)
[36] = tested on: Lys(Dnp)-ATNATNYPRIVGG-Lys(Abz)
[37] = tested on: Lys(Dnp)-ATNATLIPRIVGG-Lys(Abz)
[38] = tested on: Lys(Dnp)-ATNATPRPRIVGG-Lys(Abz)
[39] = tested on: Lys(Dnp)-ATNATX4X3PRIVGG-Lys(Abz), X4 = G, X3 = M
[40] = tested on: Lys(Dnp)-ATNATX4X3PRIVGG-Lys(Abz), X4 = H, X3 = Y

Substance: Human plasma purified α-thrombin
- FIIa kcat/KM [1]: 20000 M⁻¹ s⁻¹
- Functional Selectivity (Specificity*FIIa kcat/KM) [1]: 2.8e+06
- Specificity Ratio (FIIa/FXa) [1]: 141
- FIIa kcat/KM [2]: 27000 M⁻¹ s⁻¹
- Functional Selectivity (Specificity*FIIa kcat/KM) [2]: 620000
- Specificity Ratio (FIIa/FXa) [2]: 21
- kcat/KM [2]: 27000 M⁻¹ s⁻¹
- kcat/KM [3]: 2800 M⁻¹ s⁻¹
- FIIa kcat/KM [4]: 1200 M⁻¹ s⁻¹
- Specificity Ratio (FIIa/FXa) [4]: 19
- FIIa kcat/KM [5]: 500 M⁻¹ s⁻¹
- Specificity Ratio (FIIa/FXa) [5]: 55
- FIIa kcat/KM [6]: 740 M⁻¹ s⁻¹
- Specificity Ratio (FIIa/FXa) [6]: 106
- kcat/KM [6]: 740 M⁻¹ s⁻¹
- FIIa kcat/KM [7]: 600 M⁻¹ s⁻¹
- Specificity Ratio (FIIa/FXa) [7]: 57
- kcat/KM [8]: 1200 M⁻¹ s⁻¹
- FIIa kcat/KM [9]: 640 M⁻¹ s⁻¹
- Specificity Ratio (FIIa/FXa) [9]: 39
- FIIa kcat/KM [10]: 780 M⁻¹ s⁻¹
- Specificity Ratio (FIIa/FXa) [10]: 52
- FIIa kcat/KM [11]: 1200 M⁻¹ s⁻¹
- Specificity Ratio (FIIa/FXa) [11]: 33
- kcat/KM [12]: 1300 M⁻¹ s⁻¹
- FIIa kcat/KM [13]: 2700 M⁻¹ s⁻¹
- Specificity Ratio (FIIa/FXa) [13]: 46
- kcat/KM [13]: 2700 M⁻¹ s⁻¹
- FIIa kcat/KM [14]: 980 M⁻¹ s⁻¹
- Specificity Ratio (FIIa/FXa) [14]: 50
- FIIa kcat/KM [15]: 750 M⁻¹ s⁻¹
- Specificity Ratio (FIIa/FXa) [15]: 22
- FIIa kcat/KM [16]: 5600 M⁻¹ s⁻¹
- Specificity Ratio (FIIa/FXa) [16]: 40
- kcat/KM [16]: 5600 M⁻¹ s⁻¹
- FIIa kcat/KM [17]: 8600 M⁻¹ s⁻¹
- Specificity Ratio (FIIa/FXa) [17]: 51
- kcat/KM [17]: 8600 M⁻¹ s⁻¹
- FIIa kcat/KM [18]: 6300 M⁻¹ s⁻¹
- Specificity Ratio (FIIa/FXa) [18]: 21
- kcat/KM [18]: 6300 M⁻¹ s⁻¹
- FIIa kcat/KM [19]: 1200 M⁻¹ s⁻¹
- Specificity Ratio (FIIa/FXa) [19]: 21
- FIIa kcat/KM [20]: 11000 M⁻¹ s⁻¹
- Functional Selectivity (Specificity*FIIa kcat/KM) [20]: 2.2e+06
- kcat/KM [20]: 11000 M⁻¹ s⁻¹
- FIIa kcat/KM [21]: 2800 M⁻¹ s⁻¹
- Functional Selectivity (Specificity*FIIa kcat/KM) [21]: 1.1e+06
- kcat/KM [21]: 2800 M⁻¹ s⁻¹
- FIIa kcat/KM [22]: 1100 M⁻¹ s⁻¹
- Specificity Ratio (FIIa/FXa) [22]: 85
- kcat/KM [22]: 1100 M⁻¹ s⁻¹
- kcat/KM [23]: 6800 M⁻¹ s⁻¹
- FIIa kcat/KM [24]: 7000 M⁻¹ s⁻¹
- Specificity Ratio (FIIa/FXa) [24]: 45
- FIIa kcat/KM [25]: 3200 M⁻¹ s⁻¹
- Specificity Ratio (FIIa/FXa) [25]: 145
- kcat/KM [25]: 3200 M⁻¹ s⁻¹
- FIIa kcat/KM [26]: 350 M⁻¹ s⁻¹
- Specificity Ratio (FIIa/FXa) [26]: 59
- FIIa kcat/KM [27]: 14 M⁻¹ s⁻¹
- Functional Selectivity (Specificity*FIIa kcat/KM) [27]: 28
- Specificity Ratio (FIIa/FXa) [27]: 2
- kcat/KM [27]: 14 M⁻¹ s⁻¹
- FIIa kcat/KM [28]: 3600 M⁻¹ s⁻¹
- Specificity Ratio (FIIa/FXa) [28]: 25
- kcat/KM [28]: 3600 M⁻¹ s⁻¹
- FIIa kcat/KM [29]: 49000 M⁻¹ s⁻¹
- Functional Selectivity (Specificity*FIIa kcat/KM) [29]: 2e+06
- kcat/KM [29]: 49000 M⁻¹ s⁻¹
- FIIa kcat/KM [30]: 21000 M⁻¹ s⁻¹
- Functional Selectivity (Specificity*FIIa kcat/KM) [30]: 2.7e+06
- kcat/KM [30]: 21000 M⁻¹ s⁻¹
- kcat/KM [31]: 7500 M⁻¹ s⁻¹
- FIIa kcat/KM [32]: 1300 M⁻¹ s⁻¹
- Specificity Ratio (FIIa/FXa) [32]: 157
- kcat/KM [32]: 1300 M⁻¹ s⁻¹
- FIIa kcat/KM [33]: 16000 M⁻¹ s⁻¹
- Specificity Ratio (FIIa/FXa) [33]: 37
- kcat/KM [33]: 16000 M⁻¹ s⁻¹
- FIIa kcat/KM [34]: 850 M⁻¹ s⁻¹
- Specificity Ratio (FIIa/FXa) [34]: 63
- FIIa kcat/KM [35]: 11000 M⁻¹ s⁻¹
- Functional Selectivity (Specificity*FIIa kcat/KM) [35]: 3.8e+06
- kcat/KM [35]: 11000 M⁻¹ s⁻¹
- kcat/KM [36]: 780 M⁻¹ s⁻¹
- FIIa kcat/KM [37]: 34000 M⁻¹ s⁻¹
- Functional Selectivity (Specificity*FIIa kcat/KM) [37]: 2.7e+06
- kcat/KM [37]: 34000 M⁻¹ s⁻¹
- FIIa kcat/KM [38]: 17000 M⁻¹ s⁻¹
- Specificity Ratio (FIIa/FXa) [38]: 34
- kcat/KM [38]: 17000 M⁻¹ s⁻¹
- FIIa kcat/KM [39]: 1200 M⁻¹ s⁻¹
- Specificity Ratio (FIIa/FXa) [39]: 23
- FIIa kcat/KM [40]: 1300 M⁻¹ s⁻¹
- Specificity Ratio (FIIa/FXa) [40]: 31
